# Test results published in US11503826B2, “Low volatility auxin herbicide formulations” (priority 2009, dated 2022).
# Experiment: Aqueous solubility of dicamba acid and dicamba salts
# Conditions: Table 10a; dicamba salt solutions
# From the text: The solution was then passed through a 0.45 micron filter and assayed by HPLC for soluble dicamba.
structure (smiles),measurement,value
NCCO [MEA],Comments (crystal formation),"No crystals, sticky oil"
